ChEMBL document CHEMBL4371025, “Discovery and evaluation of novel FAAH inhibitors in neuropathic pain model” (Bioorg Med Chem Lett, 2019)

Amino acid sequences for entries named in this document (tags omitted).
UniProt O00519, whole entry: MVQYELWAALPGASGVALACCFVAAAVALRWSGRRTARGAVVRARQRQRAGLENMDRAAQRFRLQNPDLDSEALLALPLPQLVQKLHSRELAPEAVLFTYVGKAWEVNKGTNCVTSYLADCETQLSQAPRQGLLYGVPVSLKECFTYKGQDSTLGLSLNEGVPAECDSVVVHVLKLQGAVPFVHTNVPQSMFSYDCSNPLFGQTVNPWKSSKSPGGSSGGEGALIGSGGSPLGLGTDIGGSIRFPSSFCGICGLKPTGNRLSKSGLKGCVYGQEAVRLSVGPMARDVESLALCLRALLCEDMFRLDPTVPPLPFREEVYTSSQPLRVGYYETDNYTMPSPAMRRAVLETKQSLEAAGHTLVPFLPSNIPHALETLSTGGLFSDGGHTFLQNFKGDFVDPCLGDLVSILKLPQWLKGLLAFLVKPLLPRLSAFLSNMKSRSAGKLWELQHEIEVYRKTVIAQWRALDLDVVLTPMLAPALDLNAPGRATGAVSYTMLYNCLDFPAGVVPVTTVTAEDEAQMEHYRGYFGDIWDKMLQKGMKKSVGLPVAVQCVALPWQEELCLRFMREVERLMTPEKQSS

Columns and labels:
[1] = target: T1, Fatty-acid amide hydrolase 1 (Homo sapiens, UniProt O00519); experiment: Substrate activity at human transmembrane domain deficient FFAH expressed in Escherichia coli assessed as parent compound remaining at 2 times IC50 measured immediately by MS analysis
[2] = target: T1, Fatty-acid amide hydrolase 1; experiment: Substrate activity at human transmembrane domain deficient FFAH expressed in Escherichia coli assessed as parent compound remaining at 2 times IC50 after 60 mins by MS analysis
[3] = target: T1, Fatty-acid amide hydrolase 1; experiment: Substrate activity at human transmembrane domain deficient FFAH expressed in Escherichia coli assessed as parent compound remaining at 2 times IC50 after 30 mins by MS analysis
[4] = target: T1, Fatty-acid amide hydrolase 1; experiment: Substrate activity at human transmembrane domain deficient FFAH expressed in Escherichia coli assessed as parent compound remaining at 2 times IC50 after 15 mins by MS analysis
[5] = target: T1, Fatty-acid amide hydrolase 1; experiment: Reversible inhibition of human transmembrane domain deficient FFAH expressed in Escherichia coli assessed as residual activity at 10 times IC50 using AAMCA as substrate preincubated for 1 hr followed by substrate addition and subsequent 10 fold compound dilution by fluorescence assay relative to control

Activity [1]: 100% | Activity [2]: 92.1% | Activity [3]: 92.5% | Activity [4]: 95.9% | Activity [5]: 30%
Compound: O=C(NC1CCC(=Cc2cccc(Oc3ccc(C(F)(F)F)cn3)c2)CC1)c1cccnc1 (stereo not given)
